Laboratory results published in US9040727B2, “Histone deacetylase inhibitor of benzamides and use thereof” (Shanghai Institute of Pharmaceutical Industry, priority 2011, dated 2015).

Sequences of proteins named here, by UniProt entry; tags and fusion partners are left off.
UniProt Q13547, whole entry: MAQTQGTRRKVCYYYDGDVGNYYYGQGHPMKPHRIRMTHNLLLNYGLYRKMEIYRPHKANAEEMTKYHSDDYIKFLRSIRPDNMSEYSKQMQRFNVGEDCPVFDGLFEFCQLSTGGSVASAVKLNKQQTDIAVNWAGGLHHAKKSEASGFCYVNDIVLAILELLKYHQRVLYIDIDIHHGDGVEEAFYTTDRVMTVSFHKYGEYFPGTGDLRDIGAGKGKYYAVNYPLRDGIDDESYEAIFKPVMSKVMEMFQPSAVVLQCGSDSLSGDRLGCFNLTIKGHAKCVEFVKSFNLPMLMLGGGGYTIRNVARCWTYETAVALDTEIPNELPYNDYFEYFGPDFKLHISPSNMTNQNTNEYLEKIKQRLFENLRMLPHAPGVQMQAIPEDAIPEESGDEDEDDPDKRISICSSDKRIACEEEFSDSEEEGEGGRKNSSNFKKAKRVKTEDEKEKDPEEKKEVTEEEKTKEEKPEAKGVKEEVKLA

What was measured:
[1] = test system: A549 human lung cancer cells; test: In vitro anti-proliferative effect, CCK-8 method; type: cell-based
Method: (§1) The inhibitory activities of the compounds towards Hut78 T lymphocytic leukemia cells, Jurkat E6-1 human T-cell lymphoma, A549 human lung cancer cells, K562 human chronic myelogenous leukemia cells, Hep3B2.1-7 human liver cancer cells, MDA-MB-435s human breast cancer cells, Colo320 human rectal cancer cell line, and PC-3 human prostate cancer were determined. The inhibition percentages as represented by IC50 values were obtained through CCK-8 method.

HDACs = test: In vitro inhibition of HDACs (HDAC Inhibitor Drug Screening Kit); type: biochemical
Method: The test was conducted according to the instructions in the HDAC Inhibitor Drug Screening Kit (Biovision/Catalog #50051, BPS).
(2) The compound to be tested was diluted using DMSO with a four times dilution method to give 10 diluted concentrations, i.e. 500 μM, 125 μM, 31.25 μM, 7.81 μM, 1.95 μM, 0.49 μM, 0.12 μM, 0.03 μM, 7.6 E-03 μM and 1.9 E-03 μM in sequence. Each dilution sample was placed in two wells and the enzyme inhibition IC50 of the compound was tested.

HDAC1 = HDAC1 (Homo sapiens (Human), UniProt Q13547); test: In vitro inhibitory activity towards HDAC1 (HDAC Inhibitor Drug Screening Kit); type: biochemical
Method: (1) The compounds to be tested were each individually prepared as 10 μM and 1 μM solutions and their inhibitory activities towards HDAC1 at these concentrations were tested.
Each dilution sample was placed in two wells and the enzyme inhibition IC50 of the compound was tested.

[2] = test system: K562 human chronic myelogenous leukemia cells; test: In vitro anti-proliferative effect, CCK-8 method; type: cell-based
Method: as §1

| IC50 [1] [nM] | IC50 (HDACs) [nM] | IC50 (HDAC1) [nM] | IC50 [2] [nM] | % Inhibition of HDAC1 (HDAC1; compound at 1 μM) [%] | SMILES |
| --- | --- | --- | --- | --- | --- |
| 534 | 1040 | 517 | – | – | Nc1ccccc1NC(=O)c1ccc(CNC(=O)c2cccc3ccccc23)cc1 [Compound V-15] |
| – | – | – | 4660 | 45.73 | Nc1ccccc1NC(=O)c1ccc(CNC(=O)OCc2cccnc2)cc1 [MS-275, reference compound] |
